Experimental data published in patent US5597822A, “Pharmaceutical compositions for the prevention and/or treatment a gastrointestinal diseases” (Egis Pharmaceutical, priority 1993, dated 1997).

Experiments:
[1] = system: NMRI strain mice; conditions: mouse, in vivo, po
Method: The acute toxicity was determined on NMRI strain mice of both sexes weighing 20 to 25 g each by using 6 animals for each dose. The compounds to be tested were administered perorally in a volume of 20 ml/kg, the highest dose applied was 1000 mg/kg. After the administration the animals were kept under usual laboratory conditions for 7 days.
The data given as "higher than" a certain value mean the highest dose administered without noting any death of animals.

[2] = system: gastric mucosa lesions induced by absolute ethanol; test: Gastroprotective activity, test with absolute ethanol (gastric mucosa erosions); type: in vivo, rat; conditions: ED50 of gastric acid inhibition (Shay) related to ED50 of inhibition of gastric erosion
Method: Rats of both sexes weighing 200 to 250 g, each previously starved for 24 hours, were used in this experiment. The lesions of gastric mucosa were induced by the oral administration of absolute ethanol in a dose of 1 ml/animal. After one hour following the administration, the animals were killed by an overdose of ether, the stomach was excised and the alterations of gastric mucosa were examined. The lengths of the erosions were measured and summarized (expressed in mm) for each stomach to obtain the erosion index by calculating the average value of the group. The inhibition was calculated in percentage by comparing the value of the group treated with ethanol to that of the control group treated only with the vehicle. Various doses of the compounds to be tested were administered, perorally, in a volume of 5 ml/kg using a pretreatment time of 60 minutes. Eight rats were used for each dose. /A. Robert, Gastroenterology 77, 761-767 (1979)/.
^x Relative activity = ED50 value of the gastric acid inhibition
related to the ED50 value of the inhibition of the gastric erosion.

Which results are given for NC[C@H]1CC[C@H](C(=O)Oc2ccc(CCC(=O)O)cc2)CC1 [cetraxate, trans-3-[4-[4-(aminomethyl)cyclohexylcarbonyloxy]phenyl]-propionic acid, reference compound]?
LD50 p.o. [1]: higher than 1000 mg/kg; Relative activity related to the inhibition of the free acid [2]: higher than 4
